Experimental findings from patent US7749984B2, “Computer-based model for identification and characterization of non-competitive inhibitors of nicotinic acetylcholine receptors and related ligand-gated ion channel receptors” (priority 2003, dated 2010) are described below.

Protein sequences, listed by entry. Tags and fused reporters are not part of them. Residues count along the entry.
UniProt P04757, 26-499: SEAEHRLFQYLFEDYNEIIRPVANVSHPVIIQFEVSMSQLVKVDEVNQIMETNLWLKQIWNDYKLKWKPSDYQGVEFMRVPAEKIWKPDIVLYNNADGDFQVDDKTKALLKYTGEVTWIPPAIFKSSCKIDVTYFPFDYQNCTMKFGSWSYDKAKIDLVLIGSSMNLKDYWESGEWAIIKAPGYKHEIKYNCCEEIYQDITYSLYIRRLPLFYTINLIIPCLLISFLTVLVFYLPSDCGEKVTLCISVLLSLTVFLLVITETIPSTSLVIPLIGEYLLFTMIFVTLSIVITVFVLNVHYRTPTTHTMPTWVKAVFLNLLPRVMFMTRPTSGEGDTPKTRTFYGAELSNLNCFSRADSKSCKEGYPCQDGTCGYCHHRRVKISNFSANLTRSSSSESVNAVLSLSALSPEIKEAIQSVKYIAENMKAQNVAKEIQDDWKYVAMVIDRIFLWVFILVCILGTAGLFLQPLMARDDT
UniProt P12392, 21-495: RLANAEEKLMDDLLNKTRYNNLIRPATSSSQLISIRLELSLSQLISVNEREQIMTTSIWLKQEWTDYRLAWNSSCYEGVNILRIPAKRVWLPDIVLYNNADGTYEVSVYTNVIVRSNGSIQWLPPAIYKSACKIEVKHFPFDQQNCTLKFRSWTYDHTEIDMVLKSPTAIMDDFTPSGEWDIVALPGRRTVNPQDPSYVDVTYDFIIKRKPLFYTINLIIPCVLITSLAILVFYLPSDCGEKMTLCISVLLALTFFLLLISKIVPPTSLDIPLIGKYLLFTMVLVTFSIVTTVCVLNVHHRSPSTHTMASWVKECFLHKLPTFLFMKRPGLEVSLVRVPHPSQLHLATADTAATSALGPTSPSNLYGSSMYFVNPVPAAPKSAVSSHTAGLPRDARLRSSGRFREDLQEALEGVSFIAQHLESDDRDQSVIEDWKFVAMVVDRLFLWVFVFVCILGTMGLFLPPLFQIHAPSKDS

In the assay the target is α3β4 nAChR (Rattus norvegicus, UniProt P04757+P12392). Briefly: biochemical. Set-up: host or cells: HEK293 (KXα3β4R2). The class given is binding. The following applies: log K chromatographic equilibrium constant.

Take `CNC1(C)C2CCC(C2)C1(C)C` (stereo not shown) [mecamylamine]: the Kd – broadly, the constant that tells how readily two partners part at equilibrium – was 148 nM.
